Data: patent publication US9944954B2, “Glycerol 3-phosphate dehydrogenase for butanol production” (BUTAMAX ADVANCED BIOFUELS LLC, priority 2013, dated 2018)

Columns and labels:
[1] = substrate: NC(=O)C1=CN([C@@H]2O[C@H](COP(=O)(O)OP(=O)(O)OC[C@H]3O[C@@H](n4cnc5c(N)ncnc54)[C@H](O)[C@@H]3O)[C@@H](O)[C@H]2O)C=CC1; test: cells, lysate or membranes named; assay type: biochemical, Saccharomyces cerevisiae; conditions: other: crude cell extract, pH 6.8, 1 mM dihydroxyacetone phosphate, 30.0 °C
Description: (§1) Mutations were introduced at 4 different amino acid positions, according to Table 7. Mutagenesis was performed using a QuikChange Lightning Kit (Cat. #210519, Agilent Technologies, La Jolla, Calif.), according to manufacturer's directions. Mutagenesis primers were obtained from Sigma-Aldrich Co. LLC, St. Louis, Mo. Reactions were thermocycled in a Gene Amp 9700 (Perkin Elmer Applied Biosystems, Norwalk, Conn.). Escherichia coli TOP10 were transformed with 1 μl of QuikChange reaction product according to manufacturer's directions, and transformants were selected on LB agar plates with 100 μg/mL ampicillin. DNA sequences were obtained for multiple isolates from each transformation in order to identify those with the desired mutations.
(§2) Glycerol-3-phosphate production was measured by LC/MS.
The data used in this section are provided in Table 11, and includes measurements of the metabolic products and the in vitro measurements of GPD as described above.

[2] = substrate: NC(=O)C1=CN([C@@H]2O[C@H](COP(=O)(O)OP(=O)(O)OC[C@H]3O[C@@H](n4cnc5c(N)ncnc54)[C@H](O)[C@@H]3O)[C@@H](O)[C@H]2O)C=CC1; test: cells, lysate or membranes named; assay type: biochemical, Saccharomyces cerevisiae; conditions: other: crude cell extract, pH 6.8, 1 mM dihydroxyacetone phosphate, 30.0 °C; remark: listed apart in the source
Description: as §1, §2

Protein	Km [1] [µM]	Km [2]	Vmax [2]
Saccharomyces cerevisiae GPD1 (SEQ ID NO: 195) variant F73A, SEQ ID NO: 197 (Saccharomyces cerevisiae S288C; F73A) (protein, integrated at the GPD1 locus of yeast isobutanologen PNY2145 (T12 strains N3_1, E3_1); full length 391 aa) MSAAADRLNLTSGHLNAGRKRSSSSVSLKAAEKPFKVTVIGSGNWGTTIAKVVAENCKGYPEVFAPIVQMWVAEEEINGEKLTEIINTRHQNVKYLPGITLPDNLVANPDLIDSVKDVDIIVFNIPHQFLPRICSQLKGHVDSHVRAISCLKGFEVGAKGVQLLSSYITEELGIQCGALSGANIATEVAQEHWSETTVAYHIPKDFRGEGKDVDHKVLKALFHRPYFHVSVIEDVAGISICGALKNVVALGCGFVEGLGWGNNASAAIQRVGLGEIIRFGQMFFPESREETYYQESAGVADLITTCAGGRNVKVARLMATSGKDAWECEKELLNGQSAQGLITCKEVHEWLETCGSVEDFPLFEAVYQIVYNNYPMKNLPDMIEELDLHED	101		
Saccharomyces cerevisiae GPD1 (SEQ ID NO: 195) variant F129K, SEQ ID NO: 203 (Saccharomyces cerevisiae S288C; F129K) (protein, full length 391 aa) MSAAADRLNLTSGHLNAGRKRSSSSVSLKAAEKPFKVTVIGSGNWGTTIAKVVAENCKGYPEVFAPIVQMWVFEEEINGEKLTEIINTRHQNVKYLPGITLPDNLVANPDLIDSVKDVDIIVFNIPHQKLPRICSQLKGHVDSHVRAISCLKGFEVGAKGVQLLSSYITEELGIQCGALSGANIATEVAQEHWSETTVAYHIPKDFRGEGKDVDHKVLKALFHRPYFHVSVIEDVAGISICGALKNVVALGCGFVEGLGWGNNASAAIQRVGLGEIIRFGQMFFPESREETYYQESAGVADLITTCAGGRNVKVARLMATSGKDAWECEKELLNGQSAQGLITCKEVHEWLETCGSVEDFPLFEAVYQIVYNNYPMKNLPDMIEELDLHED		136 µM	14000 µM/min
Saccharomyces cerevisiae GPD1 (SEQ ID NO: 195) variant F73G, SEQ ID NO: 196 (Saccharomyces cerevisiae S288C; F73G) (protein, full length 391 aa) MSAAADRLNLTSGHLNAGRKRSSSSVSLKAAEKPFKVTVIGSGNWGTTIAKVVAENCKGYPEVFAPIVQMWVGEEEINGEKLTEIINTRHQNVKYLPGITLPDNLVANPDLIDSVKDVDIIVFNIPHQFLPRICSQLKGHVDSHVRAISCLKGFEVGAKGVQLLSSYITEELGIQCGALSGANIATEVAQEHWSETTVAYHIPKDFRGEGKDVDHKVLKALFHRPYFHVSVIEDVAGISICGALKNVVALGCGFVEGLGWGNNASAAIQRVGLGEIIRFGQMFFPESREETYYQESAGVADLITTCAGGRNVKVARLMATSGKDAWECEKELLNGQSAQGLITCKEVHEWLETCGSVEDFPLFEAVYQIVYNNYPMKNLPDMIEELDLHED		42 µM	9000 µM/min
Saccharomyces cerevisiae GPD1 (SEQ ID NO: 195) variant N44C, SEQ ID NO: 213 (Saccharomyces cerevisiae S288C; N44C) (protein, full length 391 aa) MSAAADRLNLTSGHLNAGRKRSSSSVSLKAAEKPFKVTVIGSGCWGTTIAKVVAENCKGYPEVFAPIVQMWVFEEEINGEKLTEIINTRHQNVKYLPGITLPDNLVANPDLIDSVKDVDIIVFNIPHQFLPRICSQLKGHVDSHVRAISCLKGFEVGAKGVQLLSSYITEELGIQCGALSGANIATEVAQEHWSETTVAYHIPKDFRGEGKDVDHKVLKALFHRPYFHVSVIEDVAGISICGALKNVVALGCGFVEGLGWGNNASAAIQRVGLGEIIRFGQMFFPESREETYYQESAGVADLITTCAGGRNVKVARLMATSGKDAWECEKELLNGQSAQGLITCKEVHEWLETCGSVEDFPLFEAVYQIVYNNYPMKNLPDMIEELDLHED		5 µM	3000 µM/min
Saccharomyces cerevisiae GPD1 (SEQ ID NO: 195) variant F129A, SEQ ID NO: 201 (Saccharomyces cerevisiae S288C; F129A) (protein, full length 391 aa) MSAAADRLNLTSGHLNAGRKRSSSSVSLKAAEKPFKVTVIGSGNWGTTIAKVVAENCKGYPEVFAPIVQMWVFEEEINGEKLTEIINTRHQNVKYLPGITLPDNLVANPDLIDSVKDVDIIVFNIPHQALPRICSQLKGHVDSHVRAISCLKGFEVGAKGVQLLSSYITEELGIQCGALSGANIATEVAQEHWSETTVAYHIPKDFRGEGKDVDHKVLKALFHRPYFHVSVIEDVAGISICGALKNVVALGCGFVEGLGWGNNASAAIQRVGLGEIIRFGQMFFPESREETYYQESAGVADLITTCAGGRNVKVARLMATSGKDAWECEKELLNGQSAQGLITCKEVHEWLETCGSVEDFPLFEAVYQIVYNNYPMKNLPDMIEELDLHED		199 µM and 234 µM	33000 µM/min and 14000 µM/min
Saccharomyces cerevisiae GPD1 (SEQ ID NO: 195) variant N44A, SEQ ID NO: 212 (Saccharomyces cerevisiae S288C; N44A) (protein, full length 391 aa) MSAAADRLNLTSGHLNAGRKRSSSSVSLKAAEKPFKVTVIGSGAWGTTIAKVVAENCKGYPEVFAPIVQMWVFEEEINGEKLTEIINTRHQNVKYLPGITLPDNLVANPDLIDSVKDVDIIVFNIPHQFLPRICSQLKGHVDSHVRAISCLKGFEVGAKGVQLLSSYITEELGIQCGALSGANIATEVAQEHWSETTVAYHIPKDFRGEGKDVDHKVLKALFHRPYFHVSVIEDVAGISICGALKNVVALGCGFVEGLGWGNNASAAIQRVGLGEIIRFGQMFFPESREETYYQESAGVADLITTCAGGRNVKVARLMATSGKDAWECEKELLNGQSAQGLITCKEVHEWLETCGSVEDFPLFEAVYQIVYNNYPMKNLPDMIEELDLHED		14 µM	6000 µM/min
Saccharomyces cerevisiae GPD1 (SEQ ID NO: 195) variant F129G, SEQ ID NO: 200 (Saccharomyces cerevisiae S288C; F129G) (protein, full length 391 aa) MSAAADRLNLTSGHLNAGRKRSSSSVSLKAAEKPFKVTVIGSGNWGTTIAKVVAENCKGYPEVFAPIVQMWVFEEEINGEKLTEIINTRHQNVKYLPGITLPDNLVANPDLIDSVKDVDIIVFNIPHQGLPRICSQLKGHVDSHVRAISCLKGFEVGAKGVQLLSSYITEELGIQCGALSGANIATEVAQEHWSETTVAYHIPKDFRGEGKDVDHKVLKALFHRPYFHVSVIEDVAGISICGALKNVVALGCGFVEGLGWGNNASAAIQRVGLGEIIRFGQMFFPESREETYYQESAGVADLITTCAGGRNVKVARLMATSGKDAWECEKELLNGQSAQGLITCKEVHEWLETCGSVEDFPLFEAVYQIVYNNYPMKNLPDMIEELDLHED		200 µM	21000 µM/min

Values joined by “and” are separate entries in the source; they are usually repeats but may differ in a detail not shown here. Equal values may be shown once.
